According to publication PMC6054644:

Experiments:
[1] = target: myosin-5B heavy meromyosin heavy chain (amino acids 1-1095) (murine) (UniProt P21271); assay: co-sedimentation; 3 uM myosin-5B heavy meromyosin with 15 uM F-actin; 10 mM MOPS pH 7.2, 150 mM NaCl, 0.1 mM EGTA, 3 mM NaN3, free Ca2+ ~0 to 400 uM; 15 min at room temperature, 100,000 x g for 20 min at 4 °C; CaM in supernatant and pellet by gel densitometry
[2] = system: Nc1ncnc2c1ncn2[C@@H]1O[C@H](COP(=O)(O)OP(=O)(O)OP(=O)(O)O)[C@@H](O)[C@H]1O; assay: purified protein; conditions: 30 µM F-actin (rabbit skeletal muscle), 2 mM MgCl2, 50 mM NaCl, 10 mM MOPS pH 7.0, 0.15 mM EGTA, 25 °C

percent of CaM dissociated from myosin-5B by increasing Ca^2+ [1] [%] | Substance | Km [2] [µM] | kcat [2] [s⁻¹]
25 | calmodulin (CaM) (from UniProt P0DP29 1-149) (natural protein) | – | –
– | myosin-5B heavy meromyosin (myosin-5B) (Mus musculus) | 59.07 ± 6.95 | 6.41 ± 0.14
